# Only some compounds are listed: those with a hit (about 2.8% of all), similar ones and a draw of the others.
# UUG fidelity – modulators of start codon recognition fidelity in yeast. S. cerevisiae UUG-firefly luciferase reporter, luminescence/redox ratio. activity score, % at 18.7 µM. 0.13% of 350,000 active. AID 602363;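 active = replicate mean at a twofold rise or more, about +100% in these data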;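 also: firefly luciferase made from a UUG start codon reports start codon fidelity; reporter light over untreated wells divided by growth signal over untreated wells; some hits fall short of that in this replicate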
# PGC1a acetyl inh – lowers PGC1a acetylation signal in U2OS cells. AlphaScreen anti-acetyl-lysine; with virally co-expressed GCN5 acetyltransferase. inhibition, % at 15.6 µM. actives 0.17% (n = 350,000). AID 651687;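 active = every replicate shows inhibition of at least 40%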;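 note: 0% = neutral control wells and 100% = positive control wells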
# E-sel inducer – E-selectin induction on HUVECs. P16581. HUVEC E-selectin immunofluorescence imaging; normalized: neutral wells 0, TNF-alpha wells 100. activation, % at 7.58 µM. actives 0.37% (n = 260,000). AID 686992;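 active = mean E-selectin-positive cell signal at least 10% of the positive control, reached in at least 60% of replicates, without over 20% cell loss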
#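 Read-out basis: % PE-positive cells; Test system: HUVEC primary endothelial cells; Technique: immunofluorescence imaging; Dosing: single-point compound dose.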
# C2C12 statin – suppression of simvastatin myotoxicity; C2C12 myotubes + simvastatin, ATP luminescence, 48 h; scaled: DMSO 0, geranylgeraniol control 100; rescue of ATP level, % at 7.49 µM; actives 0.78% (n = 330,000);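 active = mean ATP rescue above about 67%, or every replicate alone reaching that limit, limit read from the data, passing the limit was not always enough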;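 note: myotubes were challenged with 10 µM simvastatin during compound exposure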
# esBAF inh – blocks esBAF chromatin remodeling in mouse ES cells. AID 602393. Bmi1-luciferase knock-in reporter, 24 h; 100% = twice the neutral-well signal. actives 2% (n = 350,000). reporter increase, % at 12.5 µM; in the data active = activation above about 40%;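 note: 0% = median of the plate's neutral control wells and 100% = double that signal; a rise in the Bmi1 reporter signal indicates esBAF inhibition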
# PglD DTNB – inhibitors of Campylobacter jejuni PglD acetyltransferase. actives 0.098% (n = 360,000). inhibition, % at 12.5 µM. purified PglD enzyme, DTNB colorimetric CoA detection; in the data active = inhibition above about 16%, passing the limit was not always enough
# * marks the source's active call; other numbers are inactive results; · = no result.
# The line under a structure holds: UUG fidelity	PGC1a acetyl inh	E-sel inducer	C2C12 statin	esBAF inh	PglD DTNB
1. CC(C)(C)c1ccc(CCC2OCC(C[N+]3(C)CCOCC3)O2)cc1 (stereo not drawn)
  -7	73*	0	·	·	-4
2. Cc1nn(C)cc1NC(=O)C[C@@H]1CC[C@@H]2[C@H](COc3ccc(NC(=O)C(C)C)cc3C(=O)N2C)O1
  0	2	0	-18	2	-1
3. C[C@H]1CN([C@@H](C)CO)C(=O)c2cc(N(C)C)ccc2O[C@H]1CN(C)C(=O)NC1CCCCC1
  ·	-1	-2	-29	6	-4
4. COc1ccccc1-c1cc(C(=O)NC2CCCC2)no1
  -4	-12	·	-8	46*	2
5. O=C(NC1CCCCC1)c1cc(-c2ccccc2Cl)on1
  ·	·	·	-12	57*	·
6. Cc1ccc(O)c(NC(=O)c2cc(-c3ccccc3Cl)on2)c1
  -7	-1	·	10	52*	6
7. O=C(NC1CCCC1)c1cc(-c2ccccc2Cl)on1
  -8	·	·	-8	27	-1
8. Cc1ccccc1S(=O)(=O)NCC[C@@H]1CC[C@@H](NC(=O)C2CCCCC2)[C@H](CO)O1
  5	3	0	-4	3	-1
9. COc1ccc(NC(=O)N(C)C[C@@H]2Oc3c(NC(=O)c4cc(C)nn4C)cccc3C(=O)N([C@H](C)CO)C[C@@H]2C)cc1
  ·	4	·	16	1	-6
10. O=C(CC12CC3CC(CC(C3)C1)C2)N1CCOCC1
  -17	6	·	115*	-2	-3
11. O=C(CC12CC3CC(CC(C3)C1)C2)N1CCCOC1
  -7	·	·	·	-11	0
12. Cn1c(=O)c2c(ncn2CC(=O)NCc2cccnc2)n(C)c1=O
  2	3	·	106*	-17	1
13. CC(C)NC(=O)Cn1cnc2c1c(=O)n(C)c(=O)n2C
  -22	7	·	-1	-3	1
14. CN(C)CCCNc1nc2cc(-c3ccc4c(ccn4C)c3)sc2c(=O)n1C
  19	·	0	4	67*	-7
15. CN(C)CCCNc1nc2cc(-c3ccsc3)sc2c(=O)n1C
  ·	-6	3	-8	2	0
16. COc1cccc(CNc2nc3cc(-c4ccc(C)cc4)sc3c(=O)n2C)c1OC
  ·	24	0	7	54*	-1
17. COc1cccc(-c2cc3nc(NCc4ccc5occc5c4)n(C)c(=O)c3s2)c1
  -22	22	0	-7	61*	-1
18. C[C@H]1CN([C@@H](C)CO)C(=O)Cc2cc(NC(=O)Nc3ccc(F)cc3)ccc2O[C@H]1CN(C)Cc1ccc(C(=O)O)cc1
  4	12	-4	34	3	-6
19. C[C@H](CO)N1C[C@H](C)[C@@H](CN(C)Cc2ccc(C(=O)O)cc2)Oc2ccc(NC(=O)Nc3ccc(F)cc3)cc2CC1=O
  0	3	38*	11	-3	-5
20. CC(C)NC(=O)Nc1ccc2c(c1)CC(=O)N([C@@H](C)CO)C[C@H](C)[C@@H](CN(C)Cc1ccc(C(=O)O)cc1)O2
  -14	-2	37*	-7	1	0

# Molecules shown so far that contain a Cl atom, in the order listed:
# The line under a structure holds: UUG fidelity	PGC1a acetyl inh	E-sel inducer	C2C12 statin	esBAF inh	PglD DTNB
5. O=C(NC1CCCCC1)c1cc(-c2ccccc2Cl)on1
  ·	·	·	-12	57*	·
6. Cc1ccc(O)c(NC(=O)c2cc(-c3ccccc3Cl)on2)c1
  -7	-1	·	10	52*	6
7. O=C(NC1CCCC1)c1cc(-c2ccccc2Cl)on1
  -8	·	·	-8	27	-1

# (more compounds)
# The line under a structure holds: UUG fidelity	PGC1a acetyl inh	E-sel inducer	C2C12 statin	esBAF inh	PglD DTNB
21. Cc1cccc(Cn2cc(SCC(=O)Nc3nccs3)c3ccccc32)c1
  -8	0	0	10	65*	5
22. Cc1nc(-c2ccccn2)sc1C(=O)Nc1ccc(F)cc1F
  5	10	·	4	58*	·
23. Cc1nc(-c2ccccn2)sc1C(=O)Nc1ccc(F)cc1
  -12	-47	·	-17	25	0
24. CCC(=O)OCCNc1cc(Sc2nc3ccccc3s2)c2nonc2c1[N+](=O)[O-]
  3	19	·	102*	3	-3
25. O=[N+]([O-])c1c(NCCCO)cc(Sc2nc3ccccc3s2)c2nonc12
  -5	58*	·	-5	-2	-12
26. CCCSc1cc(NCCOC(=O)CCC)c([N+](=O)[O-])c2nonc12
  ·	·	·	2	0	·
27. Cc1ccc(S(=O)(=O)N(C)C[C@@H]2Oc3ccc(NC(=O)Nc4cccc5ccccc45)cc3C(=O)N([C@@H](C)CO)C[C@H]2C)cc1
  ·	5	0	2	4	·
28. C[C@@H]1CN([C@H](C)CO)C(=O)c2cc(C3=CCCCC3)cnc2O[C@@H]1CN(C)C(=O)c1ccncc1
  -9	4	-1	12	4	4
29. COc1cccc(C2C(=O)c3ccccc3C2=O)c1
  4	-3	66*	·	·	-1
30. COC(=O)C1=C(C)NC2=C(C(=O)c3ccccc32)C1c1cccc(OC)c1 (stereo not drawn)
  -8	-10	·	·	·	0

# Assay outcomes deposited in PubChem BioAssay by Broad Institute.
